{"source": "published antibiotic growth screens (doi:10.1038/s41589-023-01349-8)", "note": "Some of the results follow.", "data": [{"test_system": "A. baumannii ATCC 17978", "assay": "relative growth (fraction of control); higher = less inhibition", "settings": "50 µM", "values": [{"smiles": "COc1oc(C(=O)NC2CCCCC2)c(-c2ccc(Cl)cc2)c1S(=O)(=O)c1ccc2c(c1)OCCO2", "relative growth": 1.21}, {"smiles": "O=C(C[C@H]1CC[C@@H]2[C@H](COC[C@H](O)CN2C(=O)c2ccc3c(c2)OCO3)O1)NCCN1CCCC1", "relative growth": 0.981}, {"smiles": "COCC#Cc1ccc2c(c1)O[C@@H](CN(C)C(=O)C1CCOCC1)[C@@H](C)CN([C@H](C)CO)S2(=O)=O", "relative growth": 1.01}, {"smiles": "C[C@H]1CN([C@@H](C)CO)S(=O)(=O)c2ccc(C#CC(C)(C)O)cc2O[C@@H]1CN(C)C(=O)CN(C)C", "relative growth": 1.09}, {"smiles": "Cc1ccc(S(=O)(=O)N2C[C@H](O)COC[C@H]3O[C@@H](CC(=O)NCCCN(C)C)CC[C@@H]32)cc1", "relative growth": 1.16}, {"smiles": "NC(=S)Nc1ccc(S(N)(=O)=O)cc1", "relative growth": 1.15}, {"smiles": "Cn1cnc(S(=O)(=O)N2C[C@H](O)COC[C@H]3O[C@@H](CC(=O)NC4CCC4)CC[C@@H]32)c1", "relative growth": 0.906}, {"smiles": "Cc1ccc(S[C@]2(C(=O)NCc3ccccc3)CC(=O)N(Cc3ccccc3C(F)(F)F)[C@@H]2c2ccc(CO)cc2)cc1", "relative growth": 1.12}, {"smiles": "CC(C)CC#Cc1ccc2c(c1)O[C@@H](CN(C)S(=O)(=O)c1ccc(F)cc1)[C@H](C)CN([C@H](C)CO)S2(=O)=O", "relative growth": 1.09}, {"smiles": "C[N+](C)(C)CCCC[C@@H]1NC(=O)[C@H]2C[C@@H](C(=O)NCc3ccc(F)cc3)[C@@H](c3cccc(OCCO)c3)N2C1=O", "relative growth": 0.926}, {"smiles": "O=C(C[C@H]1C=C[C@H](NC(=O)Nc2cc(F)ccc2F)[C@H](CO)O1)NCCCN1CCOCC1", "relative growth": 1.04}, {"smiles": "OC[C@H]1O[C@H](O[C@]2(CCl)O[C@H](CCl)[C@@H](O)[C@@H]2O)[C@H](O)[C@@H](O)[C@H]1Cl", "relative growth": 0.923}, {"smiles": "COc1ccc(S(=O)(=O)N[C@@H]2C=C[C@@H](CC(=O)N3CCN(c4ccccc4)CC3)O[C@@H]2CO)cc1", "relative growth": 0.935}, {"smiles": "CCCNC(=O)N1C[C@@H](O)COC[C@@H]2O[C@@H](CC(=O)N3CCOCC3)CC[C@H]21", "relative growth": 0.989}, {"smiles": "O=C([O-])P(=O)([O-])[O-].[Na+].[Na+].[Na+]", "relative growth": 1.02}, {"smiles": "O=c1c(-c2nn[nH]n2)coc2ccccc12", "relative growth": 1.01}, {"smiles": "COc1ccc(S(=O)(=O)N(C)C[C@@H]2Oc3c(NC(=O)Nc4cccc5ccccc45)cccc3C(=O)N([C@@H](C)CO)C[C@H]2C)cc1C", "relative growth": 1.05}, {"smiles": "COc1ccc2c(c1)c(CC(=O)O)c(C)n2C(=O)c1ccc(Cl)cc1", "relative growth": 1.15}, {"smiles": "CC(C)N(C[C@H]1O[C@@H](n2cnc3c(N)ncnc32)[C@H](O)[C@@H]1O)[C@H]1C[C@@H](CCc2nc3ccc(C(C)(C)C)cc3[nH]2)C1", "relative growth": 1.51}, {"smiles": "CC1(C)C=Cc2c(c3c(c4c(=O)c(-c5ccc(O)c(O)c5)coc24)OC(C)(C)CC3)O1", "relative growth": 0.864}, {"smiles": "CCCNC(=O)N[C@H]1C=C[C@@H](CC(=O)N2CCN(C)CC2)O[C@@H]1CO", "relative growth": 1.07}, {"smiles": "Cc1c(C(=O)O)sc2[nH]cnc(=O)c12", "relative growth": 0.912}, {"smiles": "Cc1ccc(-c2ccc3c(c2)O[C@@H](CN(C)C(=O)CN(C)C)[C@H](C)CN([C@@H](C)CO)S3(=O)=O)cc1", "relative growth": 0.811}, {"smiles": "CNC(=O)C(=O)NCCc1c[nH]c2ccccc12", "relative growth": 1.06}, {"smiles": "Nc1nc2ccc(OC(F)(F)F)cc2s1", "relative growth": 0.908}, {"smiles": "C=C1CCC2[C@](C)(CO)[C@H](O)CC[C@@]2(C)[C@@H]1C/C=C1/C(=O)OC[C@H]1O", "note": "(stereo not given in full)", "relative growth": 1.05}, {"smiles": "Oc1cc(O)c2c(c1)O[C@H](c1ccc(O)c(O)c1)[C@H](O)C2", "relative growth": 1.06}, {"smiles": "CCCCc1oc2ccc(NS(C)(=O)=O)cc2c1C(=O)c1ccc(OCCCN(CCCC)CCCC)cc1.Cl", "relative growth": 1.09}, {"smiles": "C[C@@H]1CN([C@H](C)CO)S(=O)(=O)c2ccc(C#CC(C)(C)O)cc2O[C@H]1CN(C)C(=O)CN(C)C", "relative growth": 0.736}, {"smiles": "CCc1nc2ccccc2c(N)c1C", "relative growth": 0.853}, {"smiles": "NCC[C@@H]1CC[C@@H](NC(=O)C2CCCC2)[C@@H](CO)O1", "relative growth": 0.981}, {"smiles": "CCCCC(=O)O[C@H]1CCC2C3CCc4cc(O)ccc4C3CC[C@@]21C", "note": "(stereo not given in full)", "relative growth": 1.41}, {"smiles": "C(=N\\n1cnnc1)/c1ccco1", "relative growth": 0.857}, {"smiles": "C[C@@H]1CN([C@@H](C)CO)S(=O)(=O)c2ccc(C#Cc3ccc(F)cc3)cc2O[C@@H]1CN(C)S(=O)(=O)c1ccc(F)cc1", "relative growth": 1.12}, {"smiles": "NC(=O)C(C(N)=O)[C@H]1CCS(=O)(=O)C1", "relative growth": 1.08}, {"smiles": "CN1CCN(C(=O)C[C@H]2CC[C@@H]3[C@H](COC[C@@H](O)CN3C(=O)Nc3cc(Cl)cc(Cl)c3)O2)CC1", "relative growth": 0.857}, {"smiles": "COCC(=O)N[C@@H]1C=C[C@H](CC(=O)N2CCCCC2)O[C@H]1CO", "relative growth": 0.926}, {"smiles": "CN(C)CCCNC(=O)C[C@@H]1CC[C@@H](NS(=O)(=O)c2ccccc2)[C@@H](CO)O1", "relative growth": 1.01}, {"smiles": "S=C1NCN(Cc2cccs2)CN1", "relative growth": 0.919}, {"smiles": "Cn1cnc(S(=O)(=O)N2C[C@@H](O)COC[C@H]3O[C@H](CC(=O)NCc4cc(F)cc(F)c4)CC[C@@H]32)c1", "relative growth": 0.876}, {"smiles": "Nc1ncnc2c1ncn2CCN1CCOCC1", "relative growth": 1.05}, {"smiles": "CC(=O)N(C)C[C@@H]1Oc2ncc(C#C[C@@H](C)O)cc2C(=O)N([C@H](C)CO)C[C@@H]1C", "relative growth": 0.962}, {"smiles": "CN(C)CCCCCCNC(=O)[C@H]1C[C@H]2C(=O)N3CCC[C@H]3C(=O)N2[C@H]1c1cccc(OCCO)c1", "relative growth": 0.953}, {"smiles": "C[C@@H]1CN([C@@H](C)CO)S(=O)(=O)c2ccc(-c3ccc(C(=O)N(C)C)cc3)cc2O[C@@H]1CN(C)C(=O)C1CCOCC1", "relative growth": 0.856}, {"smiles": "O=C1C=C(O)C(=O)c2ccccc21", "relative growth": 1.01}, {"smiles": "Cc1sc(C)c(CNc2ccccc2)c1CNc1ccccc1", "relative growth": 1.01}, {"smiles": "CCNC(=O)C[C@@H]1C=C[C@@H](NC(=O)C2CCOCC2)[C@H](CO)O1", "relative growth": 0.986}, {"smiles": "CN(C)CCOC(c1ccccc1)c1ccccc1.Cl", "relative growth": 1.02}, {"smiles": "COc1ccc(C)c2c1CCCC2=O", "relative growth": 1.02}, {"smiles": "CSc1nn(C)c2cnn(C)c(=O)c12", "relative growth": 1.05}, {"smiles": "O=C(CN1CCOCC1)N[C@@H]1CC[C@@H](CCNC(=O)C2CCCCC2)O[C@H]1CO", "relative growth": 0.98}, {"smiles": "Cl.OC(CNCC(O)C1CCc2cc(F)ccc2O1)C1CCc2cc(F)ccc2O1", "note": "(stereo not given)", "relative growth": 0.849}, {"smiles": "COc1ccc([Si](C)(C)[C@H]2[C@H](CCO)O[C@@]3(C(=O)N(Cc4ccccc4)c4ccc(N5C(=O)c6cccc7cccc5c67)cc43)[C@@H]2C)cc1", "relative growth": 1.38}, {"smiles": "Cc1ccn2c(=O)c(C(=O)O)cnc2c1", "relative growth": 1.06}, {"smiles": "COC[C@H]1CNN1C(=O)C1CCCC1", "relative growth": 1.04}]}]}
